Results as given in PMC12207880 (The Oncologist, 2025).

System: patients with advanced solid tumors
Conditions: N = 3

Cc1nc2c(F)cc(-c3nc(Nc4ccc5c(n4)CCN(CCN(C)C)C5)ncc3F)cc2n1C1CC1
1 (33.3) n (%): Alkaline phosphatase increased, Grade All (50 mg QD) | Anaemia, Grade ≥3 (50 mg QD) | Diarrhoea, Grade All (50 mg QD) | Haematuria, Grade All (50 mg QD) | Leucocyte count decreased, Grade All (50 mg QD) | Lymphocyte count decreased, Grade All (50 mg QD) | Lymphocyte count decreased, Grade ≥3 (50 mg QD) | Neutrophil count decreased, Grade All (50 mg QD) | Platelet count decreased, Grade All (50 mg QD) | Rash, Grade All (50 mg QD) | γ-glutamyl transpeptidase increased, Grade All (50 mg QD) | Alkaline phosphatase increased, Grade All (100 mg QD) | Anaemia, Grade All (100 mg QD) | Blood creatinine increased, Grade All (100 mg QD) | Haematuria, Grade All (100 mg QD) | Leucocyte count decreased, Grade All (100 mg QD) | Lymphocyte count decreased, Grade All (100 mg QD) | Neutrophil count decreased, Grade All (100 mg QD)
2 (66.7) n (%): All TRAEs, Grade ≥3 (50 mg QD) | Anaemia, Grade All (50 mg QD) | Dizziness, Grade All (50 mg QD) | Diarrhoea, Grade All (100 mg QD) | Electrocardiogram QT prolonged, Grade All (100 mg QD)
0 n (%): Abdominal pain, Grade All (50 mg QD) | Abdominal pain, Grade ≥3 (50 mg QD) | Alanine aminotransferase increased, Grade All (50 mg QD) | Alanine aminotransferase increased, Grade ≥3 (50 mg QD) | Alkaline phosphatase increased, Grade ≥3 (50 mg QD) | Appetite decreased, Grade All (50 mg QD) | Appetite decreased, Grade ≥3 (50 mg QD) | Aspartate aminotransferase increased, Grade All (50 mg QD) | Aspartate aminotransferase increased, Grade ≥3 (50 mg QD) | Blood creatinine increased, Grade All (50 mg QD) | Blood creatinine increased, Grade ≥3 (50 mg QD) | Blood lactic dehydrogenase increased, Grade All (50 mg QD) | Blood lactic dehydrogenase increased, Grade ≥3 (50 mg QD) | Diarrhoea, Grade ≥3 (50 mg QD) | Dizziness, Grade ≥3 (50 mg QD) | Electrocardiogram QT prolonged, Grade All (50 mg QD) | Electrocardiogram QT prolonged, Grade ≥3 (50 mg QD) | Fatigue, Grade All (50 mg QD) | Fatigue, Grade ≥3 (50 mg QD) | Haematuria, Grade ≥ 3 (50 mg QD) | Hypoalbuminemia, Grade All (50 mg QD) | Hypoalbuminemia, Grade ≥3 (50 mg QD) | Hypokalaemia, Grade All (50 mg QD) | Hypokalaemia, Grade ≥3 (50 mg QD) | Hyponatraemia, Grade All (50 mg QD) | Hyponatraemia, Grade ≥3 (50 mg QD) | Leucocyte count decreased, Grade ≥3 (50 mg QD) | Nausea, Grade All (50 mg QD) | Nausea, Grade ≥3 (50 mg QD) | Neutrophil count decreased, Grade ≥3 (50 mg QD) | Platelet count decreased, Grade ≥3 (50 mg QD) | Rash, Grade ≥3 (50 mg QD) | Vomiting, Grade All (50 mg QD) | Vomiting, Grade ≥3 (50 mg QD) | γ-glutamyl transpeptidase increased, Grade ≥3 (50 mg QD) | Abdominal pain, Grade All (100 mg QD) | Abdominal pain, Grade ≥3 (100 mg QD) | Alanine aminotransferase increased, Grade All (100 mg QD) | Alanine aminotransferase increased, Grade ≥3 (100 mg QD) | Alkaline phosphatase increased, Grade ≥3 (100 mg QD) | All TRAEs, Grade ≥3 (100 mg QD) | Anaemia, Grade ≥3 (100 mg QD) | Appetite decreased, Grade All (100 mg QD) | Appetite decreased, Grade ≥3 (100 mg QD) | Aspartate aminotransferase increased, Grade All (100 mg QD) | Aspartate aminotransferase increased, Grade ≥3 (100 mg QD) | Blood creatinine increased, Grade ≥3 (100 mg QD) | Blood lactic dehydrogenase increased, Grade All (100 mg QD) | Blood lactic dehydrogenase increased, Grade ≥3 (100 mg QD) | Diarrhoea, Grade ≥3 (100 mg QD) | Dizziness, Grade All (100 mg QD) | Dizziness, Grade ≥3 (100 mg QD) | Electrocardiogram QT prolonged, Grade ≥3 (100 mg QD) | Fatigue, Grade All (100 mg QD) | Fatigue, Grade ≥3 (100 mg QD) | Haematuria, Grade ≥ 3 (100 mg QD) | Hypoalbuminemia, Grade All (100 mg QD) | Hypoalbuminemia, Grade ≥3 (100 mg QD) | Hypokalaemia, Grade All (100 mg QD) | Hypokalaemia, Grade ≥3 (100 mg QD) | Hyponatraemia, Grade All (100 mg QD) | Hyponatraemia, Grade ≥3 (100 mg QD) | Leucocyte count decreased, Grade ≥3 (100 mg QD) | Lymphocyte count decreased, Grade ≥3 (100 mg QD) | Nausea, Grade All (100 mg QD) | Nausea, Grade ≥3 (100 mg QD)
3 (100) n (%): All TRAEs, Grade All (50 mg QD) | All TRAEs, Grade All (100 mg QD)

Read-outs that look alike come from different tables or passages of the source.
